Experimental data reported in patent US20170105952A1, “HISTONE ACETYL TRANSFERASE ACTIVATORS AND HISTONE DEACETYLASE INHIBITORS IN THE TREATMENT OF ALCOHOLISM” (THE BOARD OF TRUSTEES OF THE UNIVERSITY OF ILLINOIS, priority 2006, published 2017).

Test system: HDAC2 isoform
Test: HDAC2 protein levels in amygdaloid structures of ethanol-withdrawn rats (gold-immunolabeling)
Format: in vivo
Settings: SAHA 50 mg/kg intraperitoneally, increase seen in CeA and MeA, FIG. 4

## O=C(CCCCCCC(=O)Nc1ccccc1)NO [SAHA, suberoylanilide hydroxamic acid]
  HDAC2 protein levels: normalized HDAC2 levels
